The values below are quoted from earlier work in patent US20170262578A1, “SYSTEM, METHOD AND SOFTWARE FOR ANALYSIS OF INTRACELLULAR SIGNALING PATHWAY ACTIVATION USING TRANSCRIPTOMIC DATA” (PATHWAY PHARMACEUTICALS LTD, priority 2015, published 2017).

SMILES strings stand for the structures.

This data set deals with Bevacizumab-Refractory Metastatic Renal Cell Carcinoma. Particulars: 30 from 61 participants.

As to `CCN(CC)CCNC(=O)c1c(C)[nH]c(/C=C2\C(=O)Nc3ccc(F)cc32)c1C` [Sunitinib], the Serious adverse events is 49.18%.
